## Ab-14 light chain CDR variants: yeast mating affinities

Data: MIT Lincoln Laboratory AlphaSeq set, Engelhart et al. 2022, doi:10.1038/s41597-022-01779-4, as distributed in FLAb.

The target is the same throughout: PDVDLGDISGINAS, from the HR2 region of SARS-CoV-2 spike.

Ab-14 is the parent antibody, in scFv form: VH, then the linker GGGGSGGGGSGGGGS, then VL. The heavy chain is unchanged in all variants.
VH: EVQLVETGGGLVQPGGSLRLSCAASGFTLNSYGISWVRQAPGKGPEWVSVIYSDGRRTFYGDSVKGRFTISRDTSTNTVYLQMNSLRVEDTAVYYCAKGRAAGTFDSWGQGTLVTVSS
VL: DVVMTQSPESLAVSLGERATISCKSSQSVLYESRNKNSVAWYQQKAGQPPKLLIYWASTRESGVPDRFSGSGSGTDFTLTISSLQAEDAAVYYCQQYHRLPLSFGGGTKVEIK

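Variants in AAYL50 differ from the parent at up to three CDR positions; double and triple changes were sampled at random. The scFvs were displayed on barcoded MATa yeast, the peptide on MATalpha yeast. The frequency of each diploid, read from paired DNA barcodes, reflects how well the two displayed proteins bind. A regression on co-assayed BCL2-family reference pairs converts the normalised counts of each replicate to an apparent Kd. Each pool was mated in three replicate cultures.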

Substitutions are numbered in sequence along the VL above, starting at 1 (not Kabat). The read-out is the apparent dissociation constant on a log10 scale (nM): the lower, the stronger. "nd" marks a missing value. The strain was present, yet no cells mated with the target were sequenced in that replicate, which points to weak or no binding. Empty control strains, which show no peptide, gave a signal in 18% of pairings with library AAYL50; the median was 4.19 and 95% of these signals were weaker than 2.99. No background was subtracted. For each scFv, signals with the empty controls are counted beside the result, with their mean in brackets.

{"changes": "S26H N37K S38Y", "log10 Kd (nM) by replicate": "nd / 3.18 / nd", "empty controls": "0/9"}
{"changes": "L30I K36N W56K", "log10 Kd (nM) by replicate": "0.20 / 0.47 / 0.20", "empty controls": "4/9 (5.16)"}
{"changes": "N35V P101A S103Q", "log10 Kd (nM) by replicate": "2.52 / 2.67 / 3.38", "empty controls": "3/9 (4.23)"}
{"changes": "E61C Q95K L100P", "log10 Kd (nM) by replicate": "4.99 / nd / nd", "empty controls": "2/9 (4.96)"}
{"changes": "Q27P L30W L100W", "log10 Kd (nM) by replicate": "1.61 / 2.15 / 1.84", "empty controls": "2/9 (3.87)"}
{"changes": "K24D E32F R34M", "log10 Kd (nM) by replicate": "nd / nd / 6.26", "empty controls": "2/9 (4.56)"}
{"changes": "E32N S62T Y97L", "log10 Kd (nM) by replicate": "nd / nd / nd", "empty controls": "0/9"}
{"changes": "S25A S62Y S103I", "log10 Kd (nM) by replicate": "0.68 / 1.01 / 0.78", "empty controls": "1/9 (4.12)"}
{"changes": "K24W S25K S38M", "log10 Kd (nM) by replicate": "nd / nd / nd", "empty controls": "1/9 (3.81)"}
{"changes": "K24L S28H L100N", "log10 Kd (nM) by replicate": "nd / nd / nd", "empty controls": "0/9"}
{"changes": "N35I W56N", "log10 Kd (nM) by replicate": "1.15 / 0.98 / 0.98", "empty controls": "2/9 (4.60)"}
{"changes": "Q27T R99A", "log10 Kd (nM) by replicate": "1.57 / 1.94 / 1.78", "empty controls": "2/9 (3.39)"}
{"changes": "V39G A40M W56E", "log10 Kd (nM) by replicate": "3.74 / 5.03 / 5.02", "empty controls": "5/9 (3.70)"}
{"changes": "V39Y Y97A L102W", "log10 Kd (nM) by replicate": "5.05 / nd / nd", "empty controls": "2/9 (3.86)"}
{"changes": "E32R T59Q R60F", "log10 Kd (nM) by replicate": "5.53 / 5.38 / nd", "empty controls": "1/9 (4.13)"}
{"changes": "V29I A57E Q95R", "log10 Kd (nM) by replicate": "1.81 / 1.65 / 2.73", "empty controls": "1/9 (3.68)"}
{"changes": "Q95C Q96P H98D", "log10 Kd (nM) by replicate": "1.10 / 1.43 / 1.25", "empty controls": "3/9 (3.79)"}
{"changes": "N35L N37I", "log10 Kd (nM) by replicate": "nd / nd / nd", "empty controls": "0/9"}
{"changes": "Q27A V29T", "log10 Kd (nM) by replicate": "1.00 / 0.98 / 1.21", "empty controls": "1/9 (3.88)"}
{"changes": "Q27D S58T Q95I", "log10 Kd (nM) by replicate": "nd / nd / nd", "empty controls": "1/9 (3.30)"}
{"changes": "K24D S28D Q95C", "log10 Kd (nM) by replicate": "3.85 / 3.64 / nd", "empty controls": "2/9 (4.50)"}
{"changes": "V29H N35K S103L", "log10 Kd (nM) by replicate": "nd / nd / nd", "empty controls": "1/9 (2.61)"}
{"changes": "V29W Y31S H98E", "log10 Kd (nM) by replicate": "1.29 / 1.40 / 1.17", "empty controls": "2/9 (4.68)"}

Excerpt, the first 2 entries:

{"changes": "S26H N37K S38Y", "log10 Kd (nM) by replicate": "nd / 3.18 / nd", "empty controls": "0/9"}
{"changes": "L30I K36N W56K", "log10 Kd (nM) by replicate": "0.20 / 0.47 / 0.20", "empty controls": "4/9 (5.16)"}

Parent in this assay: reference entry 0.65, copy in this library 1.68.